Measured values from paper PMC10789121, “Amine Basicity of Quinoline ATP Synthase Inhibitors Drives Antibacterial Activity against Pseudomonas aeruginosa” (ACS Medicinal Chemistry Letters, 2023).

Test system: PΔ6 (efflux knockout strain of PA)
Assay: Antimicrobial susceptibility, broth microdilution MIC
Type: cell-based, Pseudomonas aeruginosa
Conditions: >85% reduction in growth at OD 590 nm; n = 3
Description: Pseudomonas aeruginosa (ATCC 9027), Drug-Resistant Pseudomonas aeruginosa from ATCC Panel MP-23 (BAA-2108, BAA-2109, BAA-2110), and Pseudomonas aeruginosa efflux knockout GKCW120 (PD6)14 provided by Zgurskaya and co-workers at the University of Oklahoma.
Antimicrobial Susceptibility Assay Procedure. Susceptibility testing was performed in biological triplicate, using the broth microdilution method as outlined by the Clinical and Laboratory Standards Institute. Briefly, minimum inhibitory concentrations (MIC) determinations were carried out in 96-well microtiter plates with 2-fold serial dilutions of the compounds from 0 […]
Briefly, to each well 1 µL of compound in DMSO, 89 µL of TSB, and 10 µL of bacterial inoculum, grown from frozen stock in 10 mL of TSB […]
for 4-6 hours, were added. […]
on a Biotek Synergy HTX Multi-mode plate reader. Data was processed by background subtracting the media absorbance and then normalizing the data to full bacterial growth with only vehicle.
MIC is defined as the lowest concentration of antibiotic or antibiotic/adjuvant combination that achieves ≥ 85% growth inhibition, which corresponds to no visible growth. […]

c1ccc(CSc2nc3ccccc3cc2CNCCc2cnc[nH]2)cc1 [Compound 22]
MIC PΔ6: displayed antibacterial activity
